# Test results taken from patent publication US20190309044A1, “POLYPEPTIDES AND USES THEREOF AS A DRUG FOR TREATMENT OF AUTOIMMUNE DISORDERS” (Compugen Ltd., priority 2017, published 2019).
# Test system: synovial-like T-cell - macrophage co-cultures
# Assay: Synovial-like T-cell - macrophage co-cultures from RA patients not responding to TNF blockers, TNFa secretion
# Format: cell-based, human
# Settings: Example 20; 30 microg/ml
# Excerpt: The therapeutic potential of C1ORF32-ECD-FC (SEQ ID #43) for treating RA was studied in co-cultures of activated T cells and macrophages that were modified to mimic the deleterious interaction of these cells in RA synovium. This interaction drives the secretion of pro-inflammatory cytokines that play a major role in the pathology of RA, leading to progressive joint inflammation and to joint destruction. Thus, these co-cultures provide a translational tool to evaluate the effect of potential drugs for treatment of RA (Wenink et al., Ann Rheum Dis 2012; 71:1 80-83).
# Purified T cells and myeloid cells from blood of RA patients that fail to respond to treatment with TNF blockers were activated for 6 days with TNFa, IL-6 and IL-15 and co-cultures with Monocytes derived macrophages that were generated by activation of CD14+ monocytes with M-CSF for 6 days.
# The effect of C1ORF32-ECD-FC, Abatacept (CTLA4-Ig), control Ig, vehicle or no treatment were tested via evaluation of TNFa secretion. The amounts were administered as follows: FIG. 33: 30microg/ml of each protein; FIG. 34: 3, 10, 30microg/ml of each protein as shown.
# A similar method was followed as for Example 20. […] Details of the treatments these patients were receiving and their response to these treatments are depicted in Table 6, showing loss of effect in response to one or more TNF blockers.
substance,measurement,value
abatacept: fusion protein of the ECD of CTLA-4 fused to the Fc fragment of hIgG1 [reference compound],TNFa secretion in one of the donors,no effect
